Target: T1, FAAH (Mus musculus, UniProt O08914)
T1 construct: with FP-Rh in brain and heart membrane proteome; from tissue; host or cells: brain and heart membrane proteome
Test: Activity based protein profiling (proteome-wide selectivity screening, FP-Rh), FAAH
Type: biochemical
Conditions: Table 4

Amino acid sequences for entries named in this document (tags omitted).
UniProt O08914, whole entry: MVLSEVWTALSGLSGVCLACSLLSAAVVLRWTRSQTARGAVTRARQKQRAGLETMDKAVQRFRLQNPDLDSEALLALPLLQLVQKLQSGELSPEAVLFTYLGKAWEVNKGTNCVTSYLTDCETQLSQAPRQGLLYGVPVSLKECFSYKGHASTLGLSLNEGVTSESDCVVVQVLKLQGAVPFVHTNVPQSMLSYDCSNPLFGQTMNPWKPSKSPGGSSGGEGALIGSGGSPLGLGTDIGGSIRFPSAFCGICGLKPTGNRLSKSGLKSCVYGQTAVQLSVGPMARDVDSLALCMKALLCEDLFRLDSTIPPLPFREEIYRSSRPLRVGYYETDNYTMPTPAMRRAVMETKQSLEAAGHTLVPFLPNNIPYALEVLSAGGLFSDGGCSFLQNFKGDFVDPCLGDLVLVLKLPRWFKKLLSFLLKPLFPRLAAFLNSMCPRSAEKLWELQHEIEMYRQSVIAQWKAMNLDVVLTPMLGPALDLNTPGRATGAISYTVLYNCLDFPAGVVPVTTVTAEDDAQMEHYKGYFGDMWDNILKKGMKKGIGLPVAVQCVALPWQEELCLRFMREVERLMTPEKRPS

**Q.** O=C(CCCCCCc1ccccc1)c1ncc(-c2ccccn2)o1 [compound 2, reference compound] was tested. Which IC50 did it give?
**A.** The IC50 was 2 nM.
